The test system of this assay is cultured skin fibroblasts of X-ALD. Put plainly: VLCFA ratios (C26:0/C22:0, C24:0/C22:0) in X-ALD skin fibroblasts. Type of assay: cell-based, human. The conditions noted are these: about 15 days of treatment.

B1: interferon-β: interferon-β, indicated as a possible therapy for X-ALD (protein, UniProt P01574 22-187, looked up)
Interferon beta: MSYNLLGFLQRSSNFQCQKLLWQLNGRLEYCLKDRMNFDIPEEIKQLQQFQKEDAALTIYEMLQNIFAIFRQDSSSTGWNETIVENLLANVYHQINHLKTVLEEKLEKEDFTRGKLMSSLHLKRYYGRILHYLKAKEYSHCAWTIVRVEILRNFYFINRLTGYLRN
In the case of B1, the “ratios of C26:0/C22:0 and C24:0/C22:0 / level of VLCFA” value is “ineffective in lowering the ratios of C26:0/C22:0 and C24:0/C22:0”.

Source of the values: patent publication US8507219B2, “Method of treating inflammation with statins” (MUSC Foundation for Research Development, priority 1997, dated 2013).
